System: carrageenan foot pad edema (rat paw edema)
Assay: Rat Carrageenan Foot Pad Edema Test
Assay type: in vivo, rat (male Sprague-Dawley)
Settings: oral, @ 30 mg/ka body weight, 3 hours after carrageenan injection

## COc1ccc2c(c1F)CSc1c(C(F)(F)F)nn(-c3ccc(S(C)(=O)=O)cc3)c1-2 [Example 2, 1,5-Dihydro-6-fluoro-7-methoxy-1-[(4-methylsulfonyl)phenyl]-3-(trifluoromethyl)-[2]benzothiopyrano[4,3-c]pyrazole]
  RAT PAW EDEMA % Inhibition: 28%
